How the values were obtained:
E. coli (KCTC 1682) = assay type: cell-based, Escherichia coli; details: MH broth, 2 × 10^5 cells/mL, 16 h, 37 °C, OD600, >95% killing
Excerpt: (§1) E. coli (KCTC 1682) was obtained from the Korean Collection for Type Cultures (KCTC, Jeongeup, Republic of Korea), and Acinetobacter baumannii (KCCM 40203) and Pseudomonas aeruginosa (KCCM 11328) from the Korea Culture Center of Microorganisms (KCCM, Seoul, Republic of Korea). Klebsiella pneumoniae (NCCP 16054), colistin-resistant E. coli NMA 1557 (ColREC 1557), NMS 12 (ColREC 12), and colistin-resistant A. baumannii NMS 1915 (ColRAB 1915), as well as colistin-resistant K. pneumoniae NMS 139 (ColRKP 139), were obtained from the National Institute of Health Multidrug Resistant Bacteria Specialized Pathogen Resources Bank (Osong, Republic of Korea).
(§2) The antibacterial abilities of the peptides (T. ni cecropin, cecropin A, polymyxin B, colistin, and melittin) were determined using the broth dilution method as previously reported. The peptides dissolved at 10 mg/mL in deionized water were serially diluted from 64 μM to 0.5 μM in 96-well plates using Mueller–Hinton (MH) broth, and bacteria cultured to exponential growth were added at 2 × 10^5 cells/mL. The group of bacteria that grew untreated in the broth was set as the positive control, and the uninoculated broth as the negative control. […] After 16 h incubation at 37 °C, the absorbance at 600 nm was measured using a SpectraMAX microplate reader (Molecular Devices, San Jose, CA, USA).

[1] = system: Pseudomonas aeruginosa (KCCM 11328); assay type: cell-based; details: P. aeruginosa; MH broth, 2 × 10^5 cells/mL, 16 h, 37 °C, OD600, >95% killing
Excerpt: as §1, §2

[2] = system: sheep red blood cells (sRBCs); experiment: Hemolysis; assay type: cell-based; details: 4% sRBCs in PBS pH 7.4, 1 h, 37 °C, A405; 200 μM applied if no hemolysis at 100 μM
Protocol: Sheep red blood cells (sRBCs; KisanBio, Seoul, Republic of Korea) were added to three volumes of phosphate-buffered saline (PBS; 35 mM phosphate buffer containing 150 mM NaCl, pH 7.4) and centrifuged five times at 4 °C, 1000× g for 5 min, followed by a final suspension in PBS at 4% (w/v). Peptides serially diluted from 100 μM to 3.1 μM in PBS at 100 μL in a 96-well plate were prepared, and an equal volume of blood solution was added. After incubation at 37 °C for 1 h, the plates were centrifuged for 5 min at 4 °C, 1000× g. The absorbance of the supernatant was measured at 405 nm. The 100% hemolysis control was 0.1% Triton-X 100 added to the blood solution; the negative control was blood solution added to PBS.

RAW 264.7 cells = experiment: Cytotoxicity, WST-8; assay type: cell-based, mouse; details: 12.5 μM peptide, 24 h
Protocol: Murine macrophage RAW 264.7 cells and mouse fibroblast L-929 cells were used for research and were purchased from the Korea Cell Line Bank (Seoul, Republic of Korea). Both cells were cultured in Dulbecco’s Modified Eagle’s Medium (DMEM; Welgene, Gyeongsan, Republic of Korea) supplemented with 10% fetal bovine serum and 1% antibiotics (penicillin/streptomycin) at 37 °C in the presence of 5% CO2. To measure the cytotoxicities of peptides against RAW 264.7 cells and L-929 cells, both cell lines were seeded at a density of 1 × 10^5 cells/well in a 96-well plate, to which each concentration of peptide solution (from 1.6 μM to 100 μM) was added, followed by incubation for 22 h. Subsequently, WST-8 (Biomax Co., Ltd., Guri, Republic of Korea) was added at 10% volume of the final solution, and the mixture was incubated for an additional 2 h. Absorbance was measured at 450 nm. Percentages were calculated based on untreated cells.

## CC[C@H](C)[C@H](NC(=O)CN)C(=O)NCC(=O)N[C@@H](C)C(=O)N[C@H](C(=O)N[C@@H](CC(C)C)C(=O)N[C@@H](CCCCN)C(=O)N[C@H](C(=O)N[C@@H](CC(C)C)C(=O)N[C@H](C(=O)N[C@H](C(=O)NCC(=O)N[C@@H](CC(C)C)C(=O)N1CCC[C@H]1C(=O)N[C@@H](C)C(=O)N[C@@H](CC(C)C)C(=O)N[C@H](C(=O)N[C@@H](CO)C(=O)N[C@@H](Cc1c[nH]c2ccccc12)C(=O)N[C@H](C(=O)N[C@@H](CCCCN)C(=O)N[C@@H](CCCNC(=N)N)C(=O)N[C@@H](CCCCN)C(=O)N[C@@H](CCCNC(=N)N)C(=O)N[C@@H](CCC(N)=O)C(=O)N[C@@H](CCC(N)=O)C(N)=O)[C@@H](C)CC)[C@@H](C)CC)[C@@H](C)O)[C@@H](C)O)C(C)C)C(C)C [melittin]
E. coli (KCTC 1682)
  Minimal Inhibitory Concentration: 8 µM
[1]
  Minimal Inhibitory Concentration: 32 µM
[2]
  HC10 (concentration that causes 10% hemolysis in sheep red blood cells): 3.1 µM
RAW 264.7 cells
  cell viability: 3.1%

Reference: article PMC10304470, “Characterization of the Antimicrobial Activities of Trichoplusia ni Cecropin A as a High-Potency Therapeutic against Colistin-Resistant Escherichia coli” (Pharmaceutics, 2023)
